Data published in publication PMC3265452 (PLoS Neglected Tropical Diseases, 2012).

Amino acid sequences for entries named in this document (tags omitted). Residues count along the entry.
UniProt H6D5H2, 1-476: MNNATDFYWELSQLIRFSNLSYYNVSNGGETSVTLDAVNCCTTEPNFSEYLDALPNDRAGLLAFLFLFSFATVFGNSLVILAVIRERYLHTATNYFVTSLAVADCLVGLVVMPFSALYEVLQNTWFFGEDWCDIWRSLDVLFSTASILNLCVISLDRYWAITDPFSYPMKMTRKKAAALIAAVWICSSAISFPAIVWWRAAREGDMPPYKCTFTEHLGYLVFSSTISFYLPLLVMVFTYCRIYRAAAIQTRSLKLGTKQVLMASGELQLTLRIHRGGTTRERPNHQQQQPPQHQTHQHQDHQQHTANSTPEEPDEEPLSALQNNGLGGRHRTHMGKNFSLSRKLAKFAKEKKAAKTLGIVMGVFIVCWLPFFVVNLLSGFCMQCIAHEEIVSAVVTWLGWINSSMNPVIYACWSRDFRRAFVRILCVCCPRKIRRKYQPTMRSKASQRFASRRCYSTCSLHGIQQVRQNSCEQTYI
UniProt P21728, whole entry: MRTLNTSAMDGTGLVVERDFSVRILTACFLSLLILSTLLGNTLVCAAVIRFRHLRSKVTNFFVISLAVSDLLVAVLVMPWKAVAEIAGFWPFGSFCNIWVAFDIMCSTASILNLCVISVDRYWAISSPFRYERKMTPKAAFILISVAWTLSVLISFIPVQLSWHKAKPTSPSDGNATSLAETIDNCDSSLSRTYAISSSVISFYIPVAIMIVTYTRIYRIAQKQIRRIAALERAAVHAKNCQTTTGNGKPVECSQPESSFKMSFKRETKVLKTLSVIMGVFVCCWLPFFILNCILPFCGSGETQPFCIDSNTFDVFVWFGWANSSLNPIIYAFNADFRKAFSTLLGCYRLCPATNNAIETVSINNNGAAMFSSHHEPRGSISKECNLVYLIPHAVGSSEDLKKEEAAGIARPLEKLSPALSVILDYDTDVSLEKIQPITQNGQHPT

Key:
AaDOP2 [1] = molecular target: T1, AaDOP2 (Aedes aegypti, UniProt H6D5H2); experiment: AaDOP2 antagonist screen of the LOPAC1280 library (HEK-CRELuc-Aadop2 cells, luminescence); details: for inhibition at 10 µM: read-out: % of the SCH23390 effect (percent inhibition of receptor response relative to the SCH23390 control)
AaDOP2 [2] = molecular target: T1, AaDOP2; experiment: cell-based
[3] = molecular target: human D1 dopamine receptor (hD1) (Homo sapiens, UniProt P21728); experiment: cAMP accumulation secondary assay, hD1-expressing cells
AaDOP2 [4] = molecular target: T1, AaDOP2; details: from IC50 values at AaDOP2 and hD1

Compound	Compound effect (percent receptor signaling in presence of test compound, relative lux units relative to the SCH23390 control) (AaDOP2 [1])	inhibition at 10 µM (AaDOP2 [1]) [%]	other results
CN1[C@@H]2CC[C@H]1C[C@@H](OC(c1ccccc1)c1ccccc1)C2 [Compound 188, Benztropine mesylate]	11	89	–
CC(C)(C)[C@]1(O)CCN2C[C@H]3c4ccccc4CCc4cccc(c43)[C@@H]2C1 [Compound 440, (+)-Butaclamol hydrochloride, reference compound]	14	–	% of the SCH23390 effect (percent inhibition of receptor response relative to the SCH23390 control) (AaDOP2 [1]): 87%; IC50 (AaDOP2 [2]): 480 ± 33 nM
OCCN1CCN(CCCN2c3ccccc3Sc3ccc(C(F)(F)F)cc32)CC1 [Compound 520, Fluphenazine dihydrochloride]	18	82	–
OCCN1CCN(CC/C=C2/c3ccccc3Sc3ccc(C(F)(F)F)cc32)CC1 [Compound 541]	12	–	IC50 [3]: 11 ± 1.9 nM; Relative fold selectivity for AaDOP2 vs. hD1 (AaDOP2 [4]): 0.55 fold
CN(C)CCCN1c2ccccc2CCc2ccccc21 [Compound 655, Imipramine hydrochloride]	4	96	–
CCN(CC)CC(=O)Nc1c(C)cccc1C [Compound 707, Lidocaine hydrochloride]	86	–	–
Cc1nc2n(c(=O)c1CCN1CCC(c3noc4cc(F)ccc34)CC1)CCCC2 [Compound 1068, Risperidone]	17	83	–
Cl.NCCc1ccc(O)cc1 [Compound 1162, 4-Hydroxyphenethylamine hydrochloride]	121	–	–
(±)-AMT hydrochloride [Compound 113]	103	–	–
L-Methionine sulfoximine [Compound 776]	103	–	–

Where a name gives a salt, the structure may show the parent alone.
